Measurements published in PMC11291268.

B1: Gαo-GFP wild-type [human] / His6-RGS19 [not stated] (parent)
chain 1: MGCTLSAEERAALERSKAIEKNLKEDGISAAKDVKLLLLGAGESGKSTIVKQMKIIHEDGFSGEDVKQYKPVVYSNTIQSLAAIVRAMDTLGIEYGDKERKADAKMVCDVVSRMEDTEPFSAELLSAMMRLWGDSGIQECFNRSREYQLNDSAKYYLDSLDRIGAADYQPTEQDILRTRVKTTGIVETHFTFKNLHFRLFDVGGQRSERKKWIHCFEDVTAIIFCVALSGYDQVLHEDETTNRMHESLMLFDSICNNKFFIDTSIILFLNKKDLFGEKIKKSPLTICFPEYTGPNTYEDAAAYIQAQFESKNRSPNKEIYCHMTCATDTNNIQVVFDAVTDIIIANNLRGCGLY
chain 2: MPTPHEAEKQITGPEEADRPPSMSSHDTASPAAPSRNPCCLCWCCCCSCSWNQERRRAWQASRESKLQPLPSCEVCATPSPEEVQSWAQSFDKLMHSPAGRSVFRAFLRTEYSEENMLFWLACEELKAEANQHVVDEKARLIYEDYVSILSPKEVSLDSRVREGINKKMQEPSAHTFDDAQLQIYTLMHRDSYPRFLSSPTYRALLLQGPSQSSSEA

Variants of: B1
Assay: co-IP (anti-GFP nanobody) with Western blot quantification
Conditions: N2a cells, n = 3, parent: 1, read off a plot

| ratio to parent (folds over Gαo wild-type) | Variant |
| --- | --- |
| 0.06 | chain 1 A227V |
| 0.04 | chain 1 D174G |
| 0.03 | chain 1 Q233P |
| 0.07 | chain 1 F275S |
| 0.18 | chain 1 I279N |
| 0.2 | chain 1 E237K |
| 0.08 | chain 1 C215Y |
| 0.05 | chain 1 L199P |
| 0.02 | chain 1 E246K |

More lines, now with the values behind:

| Variant | ratio to parent (folds over Gαo wild-type) |
| --- | --- |
| chain 1 Y231C | 0.07 |
| chain 1 R209C | 0.03 |
| chain 1 N270H | 0.04 |
| chain 1 S47G | 0.03 |
| chain 1 G203R | 0.04 |
| chain 1 G40R | 0.01 |
| chain 1 G45E | 0.01 |
